Laboratory results as given in patent US20260382588A1, “COMPOUNDS CONTAINING A HYDROXYPHENYL MOIETY AND THEIR USE” (published 2026).

Columns and labels:
[1] = tested on: U87-luc orthotopic tumors; assay: mRNA expression (RT-qPCR) of GB invasion, inflammation, stemness and UPR markers in orthotopic U87-luc tumors; conditions: i.p. 300 μg/kg daily, 34 days
Text: Tumor cell orthotopic implantation—Tumor cells (U87-Luc (A. Jabouille, et al., Oncotarget, 2015, 6, 24922-24934)) were implanted into the brain of immunodeficient NMRI-Foxnlnu/Foxn1nu, 8 weeks old male mice (Janvier Laboratories, Laval, France). All animal procedures met the European Community Directive guidelines (Agreement B35-238-40 Biosit Rennes, France/No DIR 13480) and were approved by the local (University of Rennes) ethics committee and ensuring the breeding and the daily monitoring of the animals in the best conditions of wellbeing according to the law and the rule of 3R (Reduce-Refine-Replace). U87-Luc cells were implanted in the mouse brain by intracerebral injection followed by tumor growth monitoring using bioluminescence (PhotonIMAGER™ systems, BIOSPACE LAB). The mice were anesthetized intraperitoneally (i.p. mix Xylazine 10 mg/kg and Ketamin 60 mg/kg) and then fixed on a stereotactic frame. This framework makes it possible to manipulate the brains of living animals, and to reach isolated areas of the brain precisely relative to markings visible to the naked eye through the use of three-dimensional coordinates. After incising the scalp, the stereotaxic coordinates were calculated for injection of tumor cells into a specific point of the brain, and reproducible for all the mice used. In the study, the tumor cells (5×10^4 cells per mice in 1 μL) were injected at Bregma 0, 2.2 mm to the left of the bregma and 3.2 mm deep to perform the implantation at the level of the striatum.
Mouse treatments—Four days after tumor cells implantation, compound 28 (Z4P) treatments were started consisting in treatments of 300 μg/kg/day intraperitonially. For the RNA quantification experiment, performed on tumors generated in mice, three mice per group were treated according to the methods above. Mice were sacrificed at day 34 and the brains were removed and extract the tumor. The samples were used to extract RNA for the analysis, as described below.
Quantitative real-time PCR—Total RNA was prepared using TRIzol reagent (Invitrogen, Carlsbad, CA, USA). All RNAs were reverse-transcribed with Maxima Reverse Transcriptase (Thermo Scientific, Waltham, MA, USA), according to manufacturer protocol. qPCR was performed via a StepOnePlus™ Real-Time PCR Systems from Applied Biosystems and the SYBR Green PCR Core reagents kit (Takara). Analysis was carried out using QuantStudio™ Design and Analysis software version 1.3.1. Three technical repeats were performed per experiment and at least three biological repeats were performed per point per experiment. Each sample was extract individually for RNA and performed the quantification of mRNA levels by qPCR for several targets.
To characterize compound 28 (Z4P) in vivo, murine models growing orthotopic tumors generated by injection of U87-luc cells were utilized (25). First, intraperitoneal (IP) escalating doses of compound 28 (Z4P) (50 μg/kg to 300 μg/kg) were administered to determine compound 28 (Z4P) toxicity in vivo. This was done in WT mice and no toxicity was detected in any of the concentrations tested (FIG. 4A). […] To do so, U87-luc cells were orthotopically implanted in the mouse brain and the tumor was allowed to grow. At day 4 post implantation, a small tumor formation was detected using bioluminescence (data not shown). Thereafter, mice were randomized in different groups and compound 28 (Z4P) daily treatments (i.p. 300 μg/kg) were administered for 34 consecutive days (FIG. 5A). Upon completion of this time period, mouse brains were entirely excised and dissected. The corresponding tumors were resected, dissociated and RNA was extracted from them. The splicing of Xbp1 mRNA was evaluated in control tumors and in animals treated with compound 28 (Z4P). […] Using the same mRNA samples, the expression levels of other GB invasion, inflammation and UPR markers using RT-qPCR were also evaluated (data not shown). […]

[2] = In vivo toxicity of escalating IP doses in WT mice; conditions: i.p. 50 μg/kg to 300 μg/kg (FIG. 4A, weight tracking over 7 days)
Text: FIG. 4: In vivo effects of compound 28 (Z4P). (A) Weight tracking of animals treated with 3 different concentrations of compound 28 (Z4P) over 7 days. (B) Kaplan-Meier representation of mouse survival under this regiment (black: control; red: compound 28 (Z4P); blue: TMZ; yellow: compound 28 (Z4P)+TMZ). (C) Quantitative analysis of bioluminescence imaging signal over 35 days of experiment for the control (PBS) and compound 28 (Z4P) groups. Symbols and error bars represent mean values t SEM (number of animals are indicated in the Methods section of Biological evaluation).
To characterize compound 28 (Z4P) in vivo, murine models growing orthotopic tumors generated by injection of U87-luc cells were utilized (25). First, intraperitoneal (IP) escalating doses of compound 28 (Z4P) (50 μg/kg to 300 μg/kg) were administered to determine compound 28 (Z4P) toxicity in vivo. This was done in WT mice and no toxicity was detected in any of the concentrations tested (FIG. 4A). […] At day 4 post implantation, a small tumor formation was detected using bioluminescence (data not shown). […] The splicing of Xbp1 mRNA was evaluated in control tumors and in animals treated with compound 28 (Z4P). […] Using the same mRNA samples, the expression levels of other GB invasion, inflammation and UPR markers using RT-qPCR were also evaluated (data not shown). […]

## Cc1ccc(C)c(NC(=O)NC(C)CCc2ccc(O)cc2)c1 (racemic)
[1]
  E-cadherin (Cdh1) mRNA: remained unchanged
  Vegfa mRNA: levels decreased
  Vimentin expression: clear upregulation
  expression of stemness genes (Cd133, Olig2, Sox2, Cd44 and Sall2): no expression difference
  mRNA expression of ER stress markers (Chop, Herpud1 and Perk), apart from Bip: decreased
  mRNA levels of inflammation genes (11-6 and 11-8): remarkable decrease
[2]
  toxicity in vivo: no toxicity was detected
